The assay addresses beta-catenin-B-cell lymphoma 9 protein complex (Homo sapiens, UniProt P35222). Briefly: Inhibition of full length C-terminal 6-His-tagged beta-catenin (1 to 781 residues) (unknown origin) expressed in Escherichia coli BL21 (DE3)-N-terminal biotinylated human BCL9 (350 to 375 residues) protein-protein interaction incubated for 1 hr by Alphascreen assay. Background: Alpha assays give light when donor and acceptor beads are brought close together.

Chains of the proteins cited; added tags and fusions are not shown.
UniProt P35222, whole entry: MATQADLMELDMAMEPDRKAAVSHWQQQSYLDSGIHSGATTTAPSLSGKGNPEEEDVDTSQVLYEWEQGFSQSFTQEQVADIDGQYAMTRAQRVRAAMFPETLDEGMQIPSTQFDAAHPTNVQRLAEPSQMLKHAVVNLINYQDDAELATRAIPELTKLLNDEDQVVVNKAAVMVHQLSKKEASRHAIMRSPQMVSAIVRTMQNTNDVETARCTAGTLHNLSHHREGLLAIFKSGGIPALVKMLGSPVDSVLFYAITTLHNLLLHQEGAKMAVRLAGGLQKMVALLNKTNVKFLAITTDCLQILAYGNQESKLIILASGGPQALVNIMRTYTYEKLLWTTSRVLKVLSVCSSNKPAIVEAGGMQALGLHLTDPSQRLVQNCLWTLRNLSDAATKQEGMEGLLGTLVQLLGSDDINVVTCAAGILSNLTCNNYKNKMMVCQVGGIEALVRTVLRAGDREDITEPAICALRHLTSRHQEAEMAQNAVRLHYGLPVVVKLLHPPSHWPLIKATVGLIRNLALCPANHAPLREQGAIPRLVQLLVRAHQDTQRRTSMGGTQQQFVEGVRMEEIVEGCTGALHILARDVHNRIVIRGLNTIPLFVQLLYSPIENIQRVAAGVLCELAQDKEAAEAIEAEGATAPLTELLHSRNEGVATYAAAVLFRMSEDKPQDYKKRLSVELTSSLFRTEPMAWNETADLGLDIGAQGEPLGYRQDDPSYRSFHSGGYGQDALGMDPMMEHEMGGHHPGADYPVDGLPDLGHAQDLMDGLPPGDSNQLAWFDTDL

pIC50, pKi: −log10 of the molar value.

As to `CC(C)c1ccc(COC(=O)N2CCC[C@@H](c3cccc(OC(C)(C)C(=O)O)c3)C2)cc1`, the pIC50 was 4.92 and the pKi was 4.96.

Broadly, the pIC50 is −log10 of the IC50, conventionally taken in molar units. As a reminder, the pKi is the negative decadic logarithm of the Ki, by convention in mol/L.

Values taken from ChEMBL document CHEMBL4823263, “Discovery of 2-(3-(3-Carbamoylpiperidin-1-yl)phenoxy)acetic Acid Derivatives as Novel Small-Molecule Inhibitors of the β-Catenin/B-Cell Lymphoma 9 Protein-Protein Interaction” (J Med Chem, 2021).
